Earlier results, collected in patent US20160034667A1, “TAILORED DRUG THERAPIES AND METHODS AND SYSTEMS FOR DEVELOPING SAME” (COMPANION DX REFERENCE LAB, LLC, priority 2014, published 2016).

Key:
[1] = tested on: advanced NSCLC with ALK rearrangements
[2] = tested on: NSCLC patients with drug-sensitive EGFR mutations
[3] = tested on: NSCLC patients having EGFR mutation; conditions: FIG. 8 (B)

Structure (SMILES): C[C@@H](Oc1cc(-c2cnn(C3CCNCC3)c2)cnc1N)c1c(Cl)ccc(F)c1Cl [crizotonib, Crizotinib]
- adverse effect ([1]; a few patients): life-threatening pneumonitis
- response rates ([1]; advanced NSCLC, ALK rearrangements, progressed on previous therapy): > 60%

Structure (SMILES): COc1cc2ncnc(Nc3ccc(F)c(Cl)c3)c2cc1OCCCN1CCOCC1 [gefitinib, Gefitinib]
- response in patients with drug-sensitive EGFR mutations at Exon 19 and 21 [2]: significantly better response
- extension of life expediency on average over that of the standard chemotherapy [3]: 5.4 months
